US8980311B2, “Liposome-mediated ligation” (University of Georgia Research Foundation, Inc., priority 2006, dated 2015)

Settings: phosphate buffer containing 6 M guanidinium-hydrochloride

With “C (Acm)YAFKYARHANVGRNAFELFLGCOSBn [Compound 2]” the solubility was “poor solubility”.
